{"source": "ChEMBL document CHEMBL1147677", "about": "“Synthesis and biological evaluation of glycosidase inhibitors: gem-difluoromethylenated nojirimycin analogues” (J Med Chem, 2006)", "key": {"[1]": {"biological_target": "T1, Tissue alpha-L-fucosidase (Homo sapiens, UniProt P04066)", "T1 sequence (P04066 whole entry)": "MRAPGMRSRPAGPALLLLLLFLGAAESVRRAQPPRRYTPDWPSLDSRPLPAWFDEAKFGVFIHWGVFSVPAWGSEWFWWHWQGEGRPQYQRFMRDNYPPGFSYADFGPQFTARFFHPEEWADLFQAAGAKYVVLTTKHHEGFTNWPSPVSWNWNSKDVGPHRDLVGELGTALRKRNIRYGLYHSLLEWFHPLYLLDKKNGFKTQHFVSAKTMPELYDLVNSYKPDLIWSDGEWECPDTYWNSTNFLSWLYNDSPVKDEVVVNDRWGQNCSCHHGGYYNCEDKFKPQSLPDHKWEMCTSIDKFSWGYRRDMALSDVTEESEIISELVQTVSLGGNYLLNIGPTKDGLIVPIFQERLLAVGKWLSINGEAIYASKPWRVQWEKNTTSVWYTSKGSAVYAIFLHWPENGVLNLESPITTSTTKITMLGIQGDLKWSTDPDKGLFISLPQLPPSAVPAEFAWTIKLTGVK", "assay": "Inhibition of human placenta alpha fucosidase at pH 6.8", "how_it_was_run": "(§1)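 Nitrophenyl glycoside substrate hydrolysis in 0.1 M sodium phosphate, pH 6.8, 25 °C. Seven cuvettes hold a fixed inhibitor concentration and seven hold none, each across varying substrate levels. The reaction is started with diluted enzyme, and 4- or 2-nitrophenol release is followed at 400 nm for 2 min. Ki = [I]/(KM′/KM − 1) from KM with and without inhibitor.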"}, "[2]": {"biological_target": "T2, Tissue alpha-L-fucosidase (Bos taurus, UniProt Q2KIM0)", "T2 sequence (Q2KIM0 whole entry)": "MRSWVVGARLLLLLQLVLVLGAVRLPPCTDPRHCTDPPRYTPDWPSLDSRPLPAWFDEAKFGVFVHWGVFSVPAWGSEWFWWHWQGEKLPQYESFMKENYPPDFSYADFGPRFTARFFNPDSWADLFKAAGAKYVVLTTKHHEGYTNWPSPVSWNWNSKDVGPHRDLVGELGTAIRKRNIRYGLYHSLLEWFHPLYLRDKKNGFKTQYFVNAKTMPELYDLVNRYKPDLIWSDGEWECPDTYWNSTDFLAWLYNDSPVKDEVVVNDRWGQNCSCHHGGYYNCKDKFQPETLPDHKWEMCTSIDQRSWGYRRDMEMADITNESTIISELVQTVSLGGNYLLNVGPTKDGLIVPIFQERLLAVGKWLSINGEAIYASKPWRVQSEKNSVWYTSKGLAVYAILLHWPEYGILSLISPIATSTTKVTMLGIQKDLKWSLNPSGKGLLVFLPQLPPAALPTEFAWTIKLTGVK", "assay": "Inhibition of bovine kidney alpha fucosidase at pH 6.8", "how_it_was_run": "as §1"}}}
{"smiles": "OC[C@H]1NC[C@H](O)[C@@H](O)C1(F)F", "values": [{"measurement": "Ki", "setting": "[1]", "result": "> 1000", "unit": "µM"}, {"measurement": "Ki", "setting": "[2]", "result": "> 1000", "unit": "µM"}]}
{"smiles": "OC[C@H]1NC[C@@H](O)[C@@H](O)C1(F)F", "values": [{"measurement": "Ki", "setting": "[1]", "result": "> 1000", "unit": "µM"}, {"measurement": "Ki", "setting": "[2]", "result": "> 1000", "unit": "µM"}]}
{"smiles": "OC[C@@H]1NC[C@@H](O)[C@@H](O)C1(F)F", "values": [{"measurement": "Ki", "setting": "[1]", "result": "> 1000", "unit": "µM"}, {"measurement": "Ki", "setting": "[2]", "result": "> 1000", "unit": "µM"}]}
